Laboratory results as given in patent US20190060284A1, “PHARMACOLOGICAL MODULATORS OF NAV1.1 VOLTAGE-GATED SODIUM CHANNELS ASSOCIATED WITH MECHANICAL PAIN” (priority 2016, published 2019).
Entries after “also recorded” stand apart in the source; their conditions may differ. Where two headings read alike, the source gives them in different places.

By UniProt entry, the sequences of proteins in these tests, tags left out. Where a name states a change or a piece, a line headed by the entry shows the natural chain unless it says otherwise.
UniProt P15390, whole entry: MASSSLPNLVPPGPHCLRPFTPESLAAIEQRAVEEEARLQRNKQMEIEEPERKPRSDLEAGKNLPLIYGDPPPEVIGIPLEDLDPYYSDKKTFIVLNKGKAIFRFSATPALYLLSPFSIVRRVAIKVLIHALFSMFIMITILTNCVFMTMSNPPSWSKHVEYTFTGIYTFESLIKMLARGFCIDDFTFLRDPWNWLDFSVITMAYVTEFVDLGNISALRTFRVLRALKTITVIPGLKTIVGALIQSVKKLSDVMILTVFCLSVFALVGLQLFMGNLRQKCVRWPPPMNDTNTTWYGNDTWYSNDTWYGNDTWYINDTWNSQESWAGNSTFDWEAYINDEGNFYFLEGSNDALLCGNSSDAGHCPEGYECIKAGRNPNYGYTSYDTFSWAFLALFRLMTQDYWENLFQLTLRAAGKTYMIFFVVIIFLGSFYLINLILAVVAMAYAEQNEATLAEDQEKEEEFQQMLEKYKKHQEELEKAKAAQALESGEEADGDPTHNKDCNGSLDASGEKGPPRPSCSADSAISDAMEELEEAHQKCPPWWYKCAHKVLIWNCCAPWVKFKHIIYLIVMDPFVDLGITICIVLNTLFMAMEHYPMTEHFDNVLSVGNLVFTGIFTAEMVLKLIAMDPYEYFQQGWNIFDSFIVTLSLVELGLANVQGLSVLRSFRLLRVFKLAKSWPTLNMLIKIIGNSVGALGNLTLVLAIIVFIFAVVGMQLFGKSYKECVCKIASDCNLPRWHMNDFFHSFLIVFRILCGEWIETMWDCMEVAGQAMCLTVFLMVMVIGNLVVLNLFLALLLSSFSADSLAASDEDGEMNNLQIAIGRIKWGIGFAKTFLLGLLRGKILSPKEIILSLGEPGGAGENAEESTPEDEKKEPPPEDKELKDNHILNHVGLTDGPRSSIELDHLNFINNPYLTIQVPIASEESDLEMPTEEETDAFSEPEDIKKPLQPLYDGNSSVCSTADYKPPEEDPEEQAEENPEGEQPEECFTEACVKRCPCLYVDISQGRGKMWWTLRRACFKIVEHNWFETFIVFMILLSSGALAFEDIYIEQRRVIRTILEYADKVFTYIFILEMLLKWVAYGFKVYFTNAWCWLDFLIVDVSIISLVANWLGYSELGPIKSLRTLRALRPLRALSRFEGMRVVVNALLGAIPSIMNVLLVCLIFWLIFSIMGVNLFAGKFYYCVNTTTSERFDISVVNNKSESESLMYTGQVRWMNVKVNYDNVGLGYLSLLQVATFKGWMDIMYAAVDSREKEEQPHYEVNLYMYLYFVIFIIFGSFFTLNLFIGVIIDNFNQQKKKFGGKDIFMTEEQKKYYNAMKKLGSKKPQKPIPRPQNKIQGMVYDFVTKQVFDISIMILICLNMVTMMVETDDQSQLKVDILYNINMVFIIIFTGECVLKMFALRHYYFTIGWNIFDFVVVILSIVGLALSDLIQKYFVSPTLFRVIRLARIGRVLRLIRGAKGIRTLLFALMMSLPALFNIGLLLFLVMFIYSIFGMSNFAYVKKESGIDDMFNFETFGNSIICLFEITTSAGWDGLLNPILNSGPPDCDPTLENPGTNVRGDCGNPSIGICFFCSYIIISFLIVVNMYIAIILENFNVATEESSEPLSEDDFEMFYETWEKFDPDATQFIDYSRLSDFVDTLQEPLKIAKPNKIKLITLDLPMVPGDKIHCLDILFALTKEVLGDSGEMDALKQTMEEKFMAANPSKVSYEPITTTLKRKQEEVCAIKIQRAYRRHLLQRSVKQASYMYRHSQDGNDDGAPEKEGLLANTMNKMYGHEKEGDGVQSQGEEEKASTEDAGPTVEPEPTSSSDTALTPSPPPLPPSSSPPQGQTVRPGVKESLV
UniProt Q9NSA2: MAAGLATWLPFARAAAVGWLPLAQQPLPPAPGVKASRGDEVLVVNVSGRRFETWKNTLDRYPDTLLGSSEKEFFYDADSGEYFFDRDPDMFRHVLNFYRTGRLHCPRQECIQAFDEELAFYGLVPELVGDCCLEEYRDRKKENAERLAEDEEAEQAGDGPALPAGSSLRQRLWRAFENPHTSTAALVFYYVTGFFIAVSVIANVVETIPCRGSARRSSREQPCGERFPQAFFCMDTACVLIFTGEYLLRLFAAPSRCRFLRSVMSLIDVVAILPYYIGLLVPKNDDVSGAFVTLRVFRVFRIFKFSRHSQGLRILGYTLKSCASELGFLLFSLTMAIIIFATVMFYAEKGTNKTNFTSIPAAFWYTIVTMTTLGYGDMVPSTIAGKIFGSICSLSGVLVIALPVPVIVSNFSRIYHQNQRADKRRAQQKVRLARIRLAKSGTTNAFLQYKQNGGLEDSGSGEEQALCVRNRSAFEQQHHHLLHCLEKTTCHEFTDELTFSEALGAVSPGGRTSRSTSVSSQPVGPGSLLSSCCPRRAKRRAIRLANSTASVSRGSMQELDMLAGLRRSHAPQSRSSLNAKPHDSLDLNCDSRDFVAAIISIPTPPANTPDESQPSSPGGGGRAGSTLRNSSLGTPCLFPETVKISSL
UniProt Q99250, whole entry: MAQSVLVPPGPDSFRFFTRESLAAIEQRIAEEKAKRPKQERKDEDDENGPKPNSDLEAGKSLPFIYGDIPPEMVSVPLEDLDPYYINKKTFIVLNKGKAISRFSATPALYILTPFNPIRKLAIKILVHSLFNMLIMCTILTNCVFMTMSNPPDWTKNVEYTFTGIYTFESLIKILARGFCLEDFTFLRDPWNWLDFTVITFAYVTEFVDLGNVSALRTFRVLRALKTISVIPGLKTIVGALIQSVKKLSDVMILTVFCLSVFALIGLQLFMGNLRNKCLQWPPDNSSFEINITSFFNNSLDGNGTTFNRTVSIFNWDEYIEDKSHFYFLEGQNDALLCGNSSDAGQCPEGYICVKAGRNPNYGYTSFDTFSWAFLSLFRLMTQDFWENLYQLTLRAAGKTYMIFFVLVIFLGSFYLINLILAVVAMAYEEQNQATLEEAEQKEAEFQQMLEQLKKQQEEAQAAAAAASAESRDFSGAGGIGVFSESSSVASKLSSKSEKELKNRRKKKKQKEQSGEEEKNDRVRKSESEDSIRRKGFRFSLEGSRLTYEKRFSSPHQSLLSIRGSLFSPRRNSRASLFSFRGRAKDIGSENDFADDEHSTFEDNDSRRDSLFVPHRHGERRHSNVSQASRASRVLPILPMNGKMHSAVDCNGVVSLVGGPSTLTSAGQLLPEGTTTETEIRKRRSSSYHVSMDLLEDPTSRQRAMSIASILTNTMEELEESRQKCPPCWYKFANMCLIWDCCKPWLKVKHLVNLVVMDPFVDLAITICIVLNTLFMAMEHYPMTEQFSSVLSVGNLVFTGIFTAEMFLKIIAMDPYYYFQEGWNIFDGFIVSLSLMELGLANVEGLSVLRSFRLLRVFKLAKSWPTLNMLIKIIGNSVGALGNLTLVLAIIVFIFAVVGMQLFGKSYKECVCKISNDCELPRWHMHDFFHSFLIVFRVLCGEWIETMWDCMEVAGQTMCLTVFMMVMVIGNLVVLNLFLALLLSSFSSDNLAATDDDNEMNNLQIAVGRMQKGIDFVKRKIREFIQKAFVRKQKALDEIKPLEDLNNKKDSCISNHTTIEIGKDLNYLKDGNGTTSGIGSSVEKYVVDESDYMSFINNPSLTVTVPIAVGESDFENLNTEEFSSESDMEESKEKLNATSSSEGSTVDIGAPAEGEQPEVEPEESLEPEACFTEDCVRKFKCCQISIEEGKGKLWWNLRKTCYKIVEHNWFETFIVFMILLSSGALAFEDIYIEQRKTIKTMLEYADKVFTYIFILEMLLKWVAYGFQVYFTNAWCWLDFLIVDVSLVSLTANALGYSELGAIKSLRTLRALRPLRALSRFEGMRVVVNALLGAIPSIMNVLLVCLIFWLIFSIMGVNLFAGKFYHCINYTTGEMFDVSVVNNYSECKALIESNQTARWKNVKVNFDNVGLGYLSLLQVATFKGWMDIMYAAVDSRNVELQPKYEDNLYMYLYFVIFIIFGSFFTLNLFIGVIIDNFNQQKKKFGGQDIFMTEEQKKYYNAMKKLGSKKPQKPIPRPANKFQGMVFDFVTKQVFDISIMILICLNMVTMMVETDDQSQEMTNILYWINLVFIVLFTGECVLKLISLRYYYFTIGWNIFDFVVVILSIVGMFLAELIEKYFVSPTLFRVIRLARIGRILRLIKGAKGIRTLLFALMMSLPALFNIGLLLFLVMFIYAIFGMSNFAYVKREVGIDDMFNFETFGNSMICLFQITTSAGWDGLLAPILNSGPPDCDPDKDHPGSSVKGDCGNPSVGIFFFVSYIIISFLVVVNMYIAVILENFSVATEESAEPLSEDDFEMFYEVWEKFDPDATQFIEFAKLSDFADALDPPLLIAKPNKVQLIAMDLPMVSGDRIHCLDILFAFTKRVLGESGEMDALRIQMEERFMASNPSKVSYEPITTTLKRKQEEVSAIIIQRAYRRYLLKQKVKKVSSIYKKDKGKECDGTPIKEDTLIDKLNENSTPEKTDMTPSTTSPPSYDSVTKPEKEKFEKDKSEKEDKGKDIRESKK
UniProt Q03719: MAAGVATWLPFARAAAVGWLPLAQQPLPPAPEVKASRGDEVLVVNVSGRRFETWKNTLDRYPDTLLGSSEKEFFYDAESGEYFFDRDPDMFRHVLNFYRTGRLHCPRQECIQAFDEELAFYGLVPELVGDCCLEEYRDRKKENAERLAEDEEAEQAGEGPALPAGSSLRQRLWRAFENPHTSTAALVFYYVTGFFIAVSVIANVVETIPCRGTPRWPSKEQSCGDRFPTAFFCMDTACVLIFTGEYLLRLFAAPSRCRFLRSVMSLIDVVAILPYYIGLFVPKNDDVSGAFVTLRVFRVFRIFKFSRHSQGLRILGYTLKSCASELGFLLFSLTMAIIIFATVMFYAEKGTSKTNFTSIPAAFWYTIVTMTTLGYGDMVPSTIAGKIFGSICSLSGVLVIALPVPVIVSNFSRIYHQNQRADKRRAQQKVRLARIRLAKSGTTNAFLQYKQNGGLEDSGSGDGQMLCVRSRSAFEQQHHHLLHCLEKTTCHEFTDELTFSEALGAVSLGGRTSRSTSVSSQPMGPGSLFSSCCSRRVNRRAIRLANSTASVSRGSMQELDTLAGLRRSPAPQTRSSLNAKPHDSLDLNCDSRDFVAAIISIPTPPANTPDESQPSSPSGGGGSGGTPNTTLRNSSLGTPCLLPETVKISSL

Experiments:
[1] = test system: rNav1.4 backbone chimeras containing S1-S2, S3b-S4 and/or S5-S6 of hNav1.1; assay type: cell-based, rat/human
[2] = test system: cultured somatosensory neurons (TG, DRG); experiment: Ratiometric calcium imaging of cultured sensory neurons; assay type: cell-based, mice or rats
hNav1.3 = hNav1.3 (Homo sapiens, UniProt Q9NY46); assay type: cell-based; settings: compared with hNav1.1; 100 nM
[3] = test system: mechanical response thresholds; experiment: Von Frey mechanical response thresholds after intraplantar toxin; assay type: in vivo, mouse
Experimental: (§1) For behavioral experiments in FIG. 4, adult mice (6-12 weeks) were used. Male and female mice were first considered separately in hindpaw nocifensive response experiments. […] Therefore, male and female behavioral responses were pooled and subsequent experiments were performed on both male and female mice for CKO and WT littermate experiments, or only male mice for other conditions (e.g. Cap ablation). Nocifensive responses were recorded during a 20 minute observation period immediately following intraplantar injections (10 μl PBS with or without 5 μM Hm1a). Licking/biting behavior was scored as seconds of behavior with the experimenter blinded to injection condition and experimental cohort (WT, CKO or Cap Ablated mice). Hargreaves and Von Frey tests were performed 30 minutes after intraplantar injection of 500 nM Hm1a or Hm1b. I.t. cap ablation was performed as previously described^34, and i.t. cap treated mice were tested on a hot plate to ensure ablation of TRPV1+afferents. Ablation was also confirmed by histology.

colonic DRG neurons = experiment: Whole-cell current clamp of retrogradely traced colonic DRG neurons; assay type: cell-based, mouse
[4] = test system: rKv2.1 channels containing the S3b-S4 toxin-binding region from each of the four hNav1.9 domains; assay type: cell-based, rat/human
[5] = test system: splanchnic colonic afferents (high-threshold mechanoreceptors); experiment: Ex vivo gut-nerve single-unit recordings; assay type: cell-based, mouse; settings: Hm1a 100 nM
Experimental: In vitro single-unit extracellular recordings of action potential discharge were made from splanchnic colonic afferents. Recordings were made from healthy or CVH mice using standard protocols^61-63. Baseline mechanosensitivity was determined in response to application of a 2 g von frey hair (vfh) probe to the afferent receptive field for 3 seconds. This process was repeated 3-4 times, separated each time by 10 seconds. Mechanosensitivity was then re-tested after the application of Hm1a (100 nM) or the Nav1.1 blocker ICA-121432 (500 nM) or a combination of both ICA-121432 (500 nM) and Hm1a (100 nM). Data are presented as spikes/s and are expressed as mean±SEM.
Colitis was induced by administration of TNBS as described previously^62,63. Briefly, 13 week old anaesthetized mice were administered an intra-colonic enema of 0.1 mL TNBS (130 μg/mL in 30% EtOH) via a polyethylene catheter^62,63,66. Histological examination of mucosal architecture, cellular infiltrate, crypt abscesses, and goblet cell depletion confirmed significant TNBS-induced damage by day 3 post-treatment, which largely recovered by day 7, and fully recovered by 28 days. […] As such, they are termed ‘chronic visceral hypersensitivity’ (CVH) mice^62,63,66,68.
Ex vivo single-unit extracellular recordings of action potential discharge were made from splanchnic colonic afferents. Recordings were made from healthy or CVH mice using standard protocols (e.g. Brierley, S. M., Jones, R. C., III, Gebhart, G. F. & Blackshaw, L. A. Splanchnic and pelvic mechanosensory afferents signal different qualities of colonic stimuli in mice. Gastroenterology 127, 166-178 (2004)). Baseline mechanosensitivity was determined in response to application of a 2-g Von Frey hair probe to the afferent receptive field for 3 s. This process was repeated 3-4 times, separated each time by 10 s. Mechanosensitivity was then re-tested after the application of Hm1a (100 nM) or the Nav1.1 blocker compound B (100 μM) or a combination thereof. Instantaneous frequency is defined as the inverse of the time interval between an action potential and the previous action potential. Group data are presented as spikes per second and are expressed as mean±s.e.m.

brain = settings: previously shown; cited from earlier work
[6] = test system: rKv2.1 chimeras containing the S3b-S4 motif of each of four hNav1.1 domains (DI-DIV); assay type: cell-based, rat/human
rNav1.4 = rNav1.4 (Rattus norvegicus, UniProt P15390); experiment: Oocyte recording of rNav1.4; assay type: cell-based; settings: unmodified Nav1.4
rKv2.1 = experiment: Oocyte recording of rKv2.1; assay type: cell-based, rat; settings: unmodified rKv2.1
[7] = target: Kv4.1 voltage-gated potassium (Kv) channels (Homo sapiens, UniProt Q9NSA2); settings: previously described; cited from earlier work
dorsal horn neurons = experiment: c-Fos induction in spinal cord dorsal horn; assay type: in vivo, mouse; settings: Hm1a 5 μM intraplantar; superficial lamina ipsilateral to injection; 90 minutes
From the text: Affymetrix was commissioned to design a Type 1 probe set to mouse Nav1.1 (Scn1a, NM_018733.2) and Type 6 probe sets to mouse TRPV1 (TrpV1, NM_001001445.2), mouse Nav1.7 (Scn9a, NM_001290674.1), mouse 5HT3 (Htr3a, NM_001099644.1), and mouse TRPM8 (Trpm8, NM_134252.3) coding regions. We used the following primary antibodies: mouse anti-NF200 (1:10,000, Sigma), rabbit anti-CGRP (1:10,000, Peninsula Labs), and rabbit anti-TH (1:5,000, AbCam). We used fluorophore-conjugated secondary antibodies raised in goat against mouse or rabbit, as appropriate (1:1,000, Alexa Fluor 488, Life Technologies). To identify IB4-binding cells, biotinylated IB4 (1:1,000, Vector Labs) and fluorophore-conjugated streptavidin (1:1,000, Alexa Fluor 488, Life Technologies) were used in place of primary and secondary antibodies. Fos staining was performed 90 minutes after hindpaw injection of Hm1a or PBS. Spinal cord sections were prepared from lumbar L4/L5 and stained with rabbit anti-Fos (1:5,000, CalBiochem). ATF3 antibody (Santa Cruz Biotechnology) was used at 1:2000.

hNav1.2 = hNav1.2 (Homo sapiens, UniProt Q99250); assay type: cell-based; settings: compared with hNav1.1; 100 nM
mouse TG neurons = experiment: Whole cell patch clamp of cultured TG neurons; assay type: cell-based
mouse hind paw = experiment: Hindpaw nocifensive response (licking/biting) after intraplantar injection; assay type: in vivo
Experimental: as §1

hNav1.4 -1.8 = assay type: cell-based, human; settings: 100 nM
hNav1.1 = hNav1.1 (Homo sapiens, UniProt P35498); assay type: cell-based
mKv4.1 = mKv4.1 (Mus musculus, UniProt Q03719); experiment: Oocyte recording of mKv4.1 current; assay type: cell-based
[8] = test system: mechanonociceptive Aδ fibers (AM fibers); experiment: Ex vivo skin-nerve recordings; assay type: cell-based, mouse; settings: 1 μM Hm1a on cutaneous receptive fields; 15, 50, 100 mN
[9] = test system: paw withdrawal from noxious heat stimulus; experiment: Hargreaves' test (noxious heat); assay type: in vivo, mouse
Experimental: as §1

CC(C)C[C@@H]1NC(=O)[C@H](Cc2ccc(O)cc2)NC(=O)[C@H](CCCNC(=N)N)NC(=O)[C@@H](NC(=O)[C@@H](N)CCC(=O)O)CSSC[C@@H]2NC(=O)[C@@H]3CSSC[C@@H](C(=O)N[C@@H](C)C(=O)N[C@@H](Cc4c[nH]c5ccccc45)C(=O)N[C@@H](CC(=O)O)C(=O)NCC(=O)N[C@H](C(=O)N[C@@H](Cc4ccccc4)C(=O)N[C@@H](CO)C(=O)O)[C@@H](C)O)NC(=O)[C@H](Cc4ccc(O)cc4)NC(=O)[C@H](CCCCN)NC(=O)[C@H](Cc4c[nH]c5ccccc45)NC(=O)[C@H](CC(=O)O)NC(=O)[C@H](CO)NC(=O)[C@H](CCCNC(=N)N)NC(=O)[C@H](CSSC[C@H](NC(=O)CNC(=O)CNC(=O)[C@H](Cc4ccccc4)NC1=O)C(=O)N[C@@H](CO)C(=O)N[C@@H](CO)C(=O)N[C@@H]([C@@H](C)O)C(=O)N[C@@H](CO)C(=O)N[C@@H](CC(=O)O)C(=O)N3)NC(=O)[C@H](CO)NC(=O)[C@H](CC(C)C)NC(=O)[C@H](Cc1c[nH]cn1)NC(=O)[C@H](CCCCN)NC2=O [Hm1a, δ-theraphotoxin-Hm1a]
toxin sensitivity ([1]; Nav1.4 with S3b-S4 region of hNav1.1 only): did not confer toxin sensitivity
toxin sensitivity ([1]; Nav1.4 with S3b-S4 region plus S1-S2 loop of Nav1.1): resulted in toxin sensitivity; also recorded: fully toxin sensitive
Hm1a responders among TG neurons ([2]; TG neurons cultured from newborn (P0) mice): 13%
calcium responses ([2]; synthetic Hm1a (500 nM), rat DRG neurons): triggers calcium responses
effect on fast inactivation (hNav1.3): substantially weaker effects
mechanical sensitization, dependence on TRPV1-expressing fibers ([3]; 500 nM Hm1a, TRPV1-ablated mice): not dependent on TRPV1-expressing fibers
mechanical sensitization in Nav1.1-peripherin Cre (CKO) animals ([3]; 500 nM Hm1a, ipsilateral and contralateral paws): significantly attenuates; also recorded: equivalently reduced
sensitization to mechanical stimulation ([3]; 500 nM in 10 μl intraplantar, WT mice, 30 minutes after injection): robust sensitization to mechanical stimulation
mechanical sensitization of injected and contralateral paw ([3]; unilateral injection of Hm1a 500 nM): robust and equivalent mechanical sensitization
Hm1a-responsive CVH neurons (responders/neurons) (colonic DRG neurons; CVH mice): 7/11
colonic DRG neurons with increased electrical excitability (colonic DRG neurons; CVH mice): 64%
rheobase (colonic DRG neurons; CVH mice, Hm1a-responsive neurons): significantly decreases rheobase
action potential firing at 2x rheobase (colonic DRG neurons; CVH mice, Hm1a-responsive neurons, n=7): significantly increased action potential firing
subset of colonic DRG neurons with reduced threshold for action potential firing (colonic DRG neurons; healthy mice): 45%
number of action potentials at 2× rheobase (colonic DRG neurons; healthy mice, Hm1a-responsive neurons): not to a level that reached statistical significance
rheobase (colonic DRG neurons; healthy mice, Hm1a-responsive neurons, Hm1a (10 nM)): significant reduction in rheobase
sub-population of neurons with reduction in rheobase (responders/neurons) (colonic DRG neurons; healthy mice, Hm1a (10 nM), responder ≥10% change in rheobase): 5/11
AP firing at 2× rheobase in CVH versus normal Hm1a-responsive neurons (colonic DRG neurons; in the presence of Hm1a): significantly more AP firing
toxin sensitivity [4]: toxin insensitive
Hm1a-responsive fibers (responders/fibers) ([5]; CVH mice): 4/11
mechanically-evoked responses of Hm1a-responsive fibers ([5]; CVH mice): significant increase in mechanically-evoked responses
subset of CVH fibers with enhanced mechanically-evoked spiking ([5]; CVH mice): 36%
sub-population of high-threshold colonic afferents with increased mechanically-evoked spiking ([5]; healthy mice): 40%
fibers that responded to Hm1a (responders/fibers) ([5]; healthy mice, responder = 15% increase over baseline): 6/15
effect of injection into the brain (brain): convulsions and rapid death
toxin sensitivity of S3b-S4 chimeras [6]: susceptible; also recorded: Only the DIV chimera displays toxin sensitivity
toxin sensitivity (rNav1.4): completely insensitive
toxin sensitivity (rKv2.1): normally insensitive
block of Kv4.1 [7]: moderate-affinity blocker
Fos immunoreactivity in dorsal horn neurons (dorsal horn neurons): significantly increases Fos immunoreactivity
effect on fast inactivation (hNav1.2): substantially weaker effects
spike frequency (mouse TG neurons; 20 pA current injection, Hm1a 500 nM): robustly enhances
Hm1a responsive neurons displaying similar effect of toxin on sodium current inactivation (mouse TG neurons; P0 mouse TG neurons, steps to −30 mV from −90 mV): 15/15
outward K+ currents (mouse TG neurons; cultured sensory neurons, 500 nM Hm1a): unaffected
resting membrane potential Vm after Hm1a (mouse TG neurons; current clamp, Hm1a-responsive TG neurons, before Hm1a −55±6 mV): −56±6 mV
Nav current inactivation (mouse TG neurons; whole-cell patch-clamp, TG neurons): robustly inhibits
nocifensive responses (licking or biting of injected paw) (mouse hind paw; Hm1a 5 μM in 10 μl intraplantar, WT mice, 20 minute observation): immediate and robust nocifensive responses
nocifensive behavior in Per-Cre x Floxed-Nav1.1 (CKO) mice (mouse hind paw; Hm1a 5 μM in 10 μl, CKO versus WT): significantly greater responses to toxin in WT littermate; also recorded: significantly attenuates; also recorded: significantly reduced
nocifensive behavior after ablation of TRPV1 fibers (mouse hind paw; Hm1a 5 μM in 10 μl, intrathecal capsaicin ablated mice): persisted; also recorded: unaffected
effect on fast inactivation (hNav1.4 -1.8): no effect
effect on Nav1.1 (hNav1.1; 1 μM native Hm1a): saturating effect
speed and extent of fast inactivation (inactivation tau) (hNav1.1; Hm1a 100 nM, range of voltages): inhibits both the speed and extent of fast inactivation; also recorded: toxin-induced slowing
EC50 (hNav1.1; Xenopus oocytes, read-out: EC50, inhibition of fast inactivation): 38 ± 6 nM
toxin sensitivity (hNav1.1; hNav1.1 wild type, oocytes): fully sensitive
block of mKv4.1 (mKv4.1; 1 μM native Hm1a): fails to block
block of mKv4.1 current (mKv4.1; high concentrations (up to 5 μM) of synthetic Hm1a): < 20%
firing rate of AM fibers during mechanical stimuli [8]: significantly increases firing rate
sensitivity to heat ([9]; 500 nM in 10 μl intraplantar, 30 minutes after injection): does not alter sensitivity to heat
contralateral heat sensitivity ([9]; 500 nM unilateral injection): no change in heat sensitivity
